The assay has as its system Bacillus subtilis 168. In words: Antibiotic MIC tests in microtiter plates. Conditions: MIC of streptomycin in the presence of the compound at its tested concentration (0.9-2.7 mM).

Benzoic acid: the MIC with streptomycin turned out to be 31.2 µg/mL.
